# Reference: PubChem BioAssay AID651821 (The Scripps Research Institute Molecular Screening Center, 2012)
# The entries are a selection whose mix differs from that of the whole data set. Calls of active or inactive are those of the source.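 Rule for the calls: active = inhibition above the plate cutoff, the mean of all test compounds on that plate plus 3 SD (cut at about 35% in these data); inactive = the rest.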
# Test: small molecules binding CAG repeat RNA – biochemical, fluorescence, primary screen (AID 651821);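 note: 0% = DMSO alone and 100% = 100 µM mitoxantrone as full dye displacement; higher means more dye released from RNA so lower well fluorescence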
# Settings: r(CAG) RNA repeat, TO-PRO-1 dye displacement fluorescence; at 3 µM; active compounds read high
row,Compound,inhibition
1,O=c1[nH]c2ccccc2n1C1CCN(C(c2cccc3ccccc23)c2nnnn2C2CCCC2)CC1 (stereo unspecified),inactive: 9.43%
2,COc1cc(C(=O)NCC2(N(C)C)CCCCC2)ccc1OC(F)F,inactive: -1.33%
3,CCOC(=O)N1CCC(Nc2cccc(C)c2)CC1,inactive: -7.6%
4,O=c1[nH]c2ccccc2n1C1CCN(C(c2ccccc2)c2nnnn2C2CCCCC2)CC1 (stereo unspecified),inactive: 6.62%
5,O=C(NCC1(N2CCCCC2)CCCCC1)c1ccc(F)cc1,inactive: -1.48%
6,O=P1(N(CCCl)CCCl)SCCCS1,inactive: 0.19%
7,CCCCn1nnnc1C(c1cc2ccccc2o1)N1CCC(n2c(=O)[nH]c3ccccc32)CC1 (stereo unspecified),inactive: 6.92%
8,CCCCOc1ccc(C(=O)NCC2(N3CCOCC3)CCCCC2)cc1,inactive: -11.2%
9,COc1ccc(NC2CCN(CCc3ccccc3)CC2)c(OC)c1,inactive: 16.1%
10,CCOC(=O)N1CCC(Nc2ccc(F)cc2)CC1,inactive: 2.26%
11,CCOc1ccc(C)cc1CN(CCCl)CCCl,inactive: -3.7%
12,CC(C)(C)n1nnnc1C(c1ccccc1)N1CCC(n2c(=O)[nH]c3ccccc32)CC1 (stereo unspecified),inactive: 1.68%
13,O=C1CCN(Cc2ccccc2)CC1,inactive: -4.71%
14,CCOC(=O)N1CCC(Nc2ccc(OC)cc2)CC1,inactive: -3.14%
15,CCCCn1nnnc1C(c1ccc(OC)cc1)N1CCC(n2c(=O)[nH]c3ccccc32)CC1 (stereo unspecified),inactive: 4%
16,O=C(OC1CN2CCC1CC2)C1c2ccccc2Oc2ccccc21 (stereo unspecified),inactive: -0.94%
17,O=c1[nH]c2ccccc2n1C1CCN(C(c2cc3ccccc3o2)c2nnnn2C2CCCCC2)CC1 (stereo unspecified),inactive: 8.49%
18,N#CC1(Nc2ccccc2)CCN(Cc2ccccc2)CC1,inactive: 1.37%
19,O=C(NCC1(N2CCCCC2)CCCCC1)c1ccc(Cl)s1,inactive: 0.78%
20,COc1ccc(Cl)cc1C(=O)NCC1(N2CCOCC2)CCCCC1,inactive: -2.24%
21,O=C(NCC1(N2CCOCC2)CCCCC1)c1cc2ccccc2o1,inactive: 1.52%

row,Compound,inhibition
1,O=c1[nH]c2ccccc2n1C1CCN(C(c2ccccc2OC(F)(F)F)c2nnnn2C2CCCCC2)CC1 (stereo unspecified),inactive: 2.3%
2,O=C(NCC1(N2CCCCC2)CCCCC1)c1ccc(Cl)nc1,inactive: -3.15%
3,Cc1cc(C)cc(N(C(=O)c2ccccc2)C2CCN(C(=O)OC(C)(C)C)CC2)c1,inactive: -12.6%
4,CSc1ccccc1C(=O)NCC1(N2CCCCC2)CCCCC1,inactive: 1.68%
5,Cc1cccc(NC2(C#N)CCN(Cc3ccccc3)CC2)c1,inactive: 2.14%
6,O=C(NCC1(N2CCCCC2)CCCCC1)c1ccc(=O)[nH]c1,inactive: -2.12%
7,CCCCn1nnnc1C(c1cccs1)N1CCC(n2c(=O)[nH]c3ccccc32)CC1 (stereo unspecified),inactive: 1.03%
8,O=C(NCC1(N2CCCCC2)CCCCC1)c1cccs1,inactive: 1.3%
9,CCCCn1nnnc1C(CC)N1CCC(n2c(=O)[nH]c3ccccc32)CC1 (stereo unspecified),inactive: 3.03%
10,COc1ccc(C(=O)NCC2(N3CCCCC3)CCCCC2)cc1,inactive: 1.63%
11,CCC(c1nnnn1C1CCCC1)N1CCC(n2c(=O)[nH]c3ccccc32)CC1 (stereo unspecified),inactive: 0.13%
12,CC(C)(C)OC(=O)N1CCC(N(C(=O)c2ccccc2)c2ccc(F)cc2)CC1,inactive: -6.92%
13,COc1ccc(C(=O)NCC2(N3CCCCC3)CCCCC2)c(OC)c1OC,inactive: -4.72%
14,Cc1ccc(C(=O)NCC2(N(C)C)CCCCC2)o1,inactive: 2.93%
15,CCCOc1ccc(C(=O)NCC2(N(C)C)CCCCC2)cc1OC,inactive: -4.57%
16,COc1ccc(C(c2nnnn2C2CCCC2)N2CCC(n3c(=O)[nH]c4ccccc43)CC2)cc1 (stereo unspecified),inactive: 3.96%
17,O=C(NCC1(N2CCCCC2)CCCCC1)c1cncc(Br)c1,inactive: 4.66%
18,CN1CCC(Nc2cccc(F)c2)CC1,inactive: -0.06%
19,CCCCn1nnnc1C(c1ccnc2ccccc12)N1CCC(n2c(=O)[nH]c3ccccc32)CC1 (stereo unspecified),inactive: 5.08%
20,COc1cc(OC)c(C(=O)NCC2(N(C)C)CCCCC2)cc1OC,inactive: -4.09%
21,O=C(NCC1(N2CCOCC2)CCCCC1)c1cc(F)c(F)cc1Cl,inactive: -4.97%

row,Compound,inhibition
1,CCC(c1nnnn1C(C)(C)C)N1CCC(n2c(=O)[nH]c3ccccc32)CC1 (stereo unspecified),inactive: -0.39%
2,COC(=O)C1(Nc2ccccc2)CCN(Cc2ccccc2)CC1,inactive: 1.16%
3,COc1ccc(CN(CCCl)CCCl)cc1Cl,inactive: 2.64%
4,CN(C)c1cccc(C(=O)NCC2(N3CCCCC3)CCCCC2)c1,inactive: -3.25%
5,CC(C)c1ccc(NC2CCN(C(=O)OC(C)(C)C)CC2)cc1,inactive: -10.6%
6,CCCCn1nnnc1C(c1cccc2ccccc12)N1CCC(n2c(=O)[nH]c3ccccc32)CC1 (stereo unspecified),inactive: 9.31%
7,CN1CCN(CCOC(=O)C(O)(c2ccccc2)c2ccccc2)CC1,inactive: -0.59%
8,CC(C)c1ccc(C(=O)NCC2(N3CCOCC3)CCCCC2)cc1,inactive: -10.7%
9,COc1ccc(NC2CCN(C(=O)OC(C)(C)C)CC2)cc1,inactive: -5.66%
10,COc1cc(C(=O)NCC2(N3CCCCC3)CCCCC2)ccc1OC(F)F,inactive: -1.22%
11,O=C(NCC1(N2CCOCC2)CCCCC1)c1cc(=O)[nH]c2ccccc12,inactive: -2.77%
12,O=C(NCC1(N2CCCCC2)CCCCC1)c1cccc(C(F)(F)F)c1,inactive: -1.14%
13,CSc1ccc(C(=O)NCC2(N3CCOCC3)CCCCC2)cc1,inactive: -1.75%
14,O=C(NCC1(N2CCCCC2)CCCCC1)c1cccc([N+](=O)[O-])c1,inactive: 1.49%
15,CCN1CCC(Nc2ccc(Cl)cc2)CC1,inactive: -4.22%
16,N#CC1(Nc2ccccc2)CCN(CCc2ccccc2)CC1,inactive: -0.89%
17,O=c1[nH]c2ccccc2n1C1CCN(C(c2ccccc2OC(F)(F)F)c2nnnn2C2CCCC2)CC1 (stereo unspecified),inactive: 4%
18,CC(C)(C)n1nnnc1C(c1ccccc1OC(F)(F)F)N1CCC(n2c(=O)[nH]c3ccccc32)CC1 (stereo unspecified),inactive: 2.96%
19,O=C(NCC1(N2CCCCC2)CCCCC1)c1ccc(OC(F)F)cc1,inactive: 3.86%
